# Data from patent US9764037B2, “Conjugate compounds” (Victoria Link Limited, priority 2012, dated 2017).
# Test system: syngeneic splenocytes loaded with SIINFEKL
# Test: Peptide-specific T cell-mediated cytotoxicity in vivo, VITAL assay, […] (FIGS. 3, 4)
# Set-up: species or system mice
# Protocol: The compounds are injected to give the equivalent molar dose of […] (SEQ ID NO:262) peptide, in each case of 0.571 nmol. […] To discriminate the targets from host tissue, the injected cells are labelled with the fluorescent dye carboxyfluorescein succinimidyl ester (CFSE). A cohort syngeneic splenocytes (without peptide) labelled with the fluorescent dye cell tracker orange are also injected to serve as controls. Killing is defined as the percentage of peptide-loaded targets killed relative to control cells. Each treatment group contained 5 animals. Control animals are injected with the diluent phosphate-buffered saline (PBS).
# Cytotoxic activity is assessed as in FIG. 3. Mean percentage of killing per group±SEM are shown.
substance,measurement,setting,value
"(2S,3S,4R)-1-O-α-D-Galactopyranosyl-4-hexacosanoyl-2-((4-(2-(FFRKSIINFEKL)-2-oxoethoxy)imino)pentanoyloxy)methoxycarbonylamino) octadecane-1,3,4-triol [CN152]",cytotoxic capacity of SIINFEKL-specific T cells (killing of peptide-loaded target cells in vivo),"0.571 nmol intravenously, targets injected 7 days after vaccination, FIGS. 3 and 4",greater cytotoxic capacity
same,dependence of the cytotoxic T cell response on CD1d / NKT cells,"CD1d-deficient mice, FIG. 3",CD1d dependent
